Source: PubChem BioAssay AID492947 (National Center for Advancing Translational Sciences (NCATS), 2010)
The list shows a part of the results, in another mix than the full data. Some of these compounds have results that are not shown, active ones among them. Active and inactive are the calls of the source. The call rests on the fitted dose curve; in most records, active means well fitted activation curve with a large enough effect; inconclusive means small, poorly fitted or top-dose-only effect; inactive means flat fitted curve, though single readings scatter.

Sequences of proteins named here, by UniProt entry; tags and fusion partners are left off.
UniProt P07550, whole entry: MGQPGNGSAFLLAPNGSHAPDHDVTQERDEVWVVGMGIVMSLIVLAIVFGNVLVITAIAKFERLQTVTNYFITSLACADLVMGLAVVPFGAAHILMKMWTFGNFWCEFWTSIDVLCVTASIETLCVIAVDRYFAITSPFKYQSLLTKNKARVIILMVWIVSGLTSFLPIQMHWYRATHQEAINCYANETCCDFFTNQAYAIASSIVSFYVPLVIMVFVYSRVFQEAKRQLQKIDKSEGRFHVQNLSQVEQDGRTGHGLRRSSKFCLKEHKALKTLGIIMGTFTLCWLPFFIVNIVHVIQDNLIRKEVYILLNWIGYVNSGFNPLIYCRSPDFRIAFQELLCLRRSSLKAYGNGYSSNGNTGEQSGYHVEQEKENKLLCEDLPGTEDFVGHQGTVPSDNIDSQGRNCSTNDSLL

Target: Beta-2 adrenergic receptor (Homo sapiens) (UniProt P07550)
Assay: qHTS assay of beta-arrestin-biased ligands of beta2-adrenergic receptor;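 further: 0% = DMSO controls and full agonism = EC100 isoproterenol or metaproterenol; nearly all actives have a fitted effect of over 65% in size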
Details: beta-arrestin recruitment to beta2AR, cell-based reporter; at 46.1 µM (top of the series)
From the text: NIH Molecular Libraries Probe Production Network [MLPCN]
NIH Chemical Genomics Center [NCGC]
PI: Bryan Roth and Bob Lefkowitz
The concept of biased agonism is an emerging concept of molecular pharmacology which proposes that seven transmembrane receptors (7TMRs) or G protein-coupled receptors (GPCRs), exist in multiple signaling conformations and complexes and that ligands (either agonists or antagonists) can induce signaling biased responses for distinct signal transduction cascades.
Furthermore, accumulating evidence over the last decade has drawn attention to a novel function of beta-arrestins as signal transducers that scaffold various signaling molecules upon activation of 7TMRs. […] This beta-arrestin-biased signaling presumably leads to distinct physiological outcomes from those by G protein activation.
Additionally, the active receptor conformations which […] on this beta-arrestin signaling are likely different from those activating G protein signaling
The goal of this screening project will be to discover and optimize novel beta-arrestin-biased ligands for beta2-AR signaling. A luminescent cell-based assay for beta2-AR-mediated agonism, known as the Tango assay, has been validated in which ligand binding of a recombinant beta2-AR and subsequent recruitment of a recombinant beta-arrestin lead to the release of the transcriptional activator tTA, which upregulates transcription of a tTA-responsive luciferase gene. […] Compounds were screened as a concentration-titration series that ranged from 46 microM to 0.6 nM.
NCGC Assay Protocol Summary:
Tango cells were dispensed into white, solid, tissue-culture-treated 1536-well plates at 1500 cells/well in DMEM, containing 1% fetal bovine serum (FBS). Then, 23 nL of compounds or DMSO were delivered to each well using a pin tool. Plates were incubated at 37 degrees C, 5% CO2 for 18 hr. Then 2.5 uL luminescent substrate mix (in-house prepared: 150 mM Tris-Cl, pH 7.6, 3 mM MgCl2, 1% Triton X-100, 5 mM DTT, 0.5 mM CoA, 0.15 mM ATP, 0.44 mM D-luciferin, final concentrations) was added to each well. Plates were then incubated for 15 minutes at room temperature, and subsequently measured on a ViewLux plate reader for luminescent signal using a clear filter with a 10 second exposure and 2x binning. The %Activity was determined from the corrected luminescence values.
Concentration-response curves were fitted to the signals arising from the resulting luminescence. The concentration-effect curves were then classified based on curve quality (r2), response magnitude and degree of measured activity, and compounds were subsequently categorized based on their curve class.
Keywords: biased agonism, beta2-AR, beta-arrestin, GPCR, 7TMR, Tango, luminescence, MLSMR, MLPCN, NIH Roadmap, qHTS, NCGC

SMILES | activation
CC(C)Oc1ccc(C(=O)NCC2(N(C)C)CCCCC2)cc1 | inactive: 0.0555%
CN(C)c1cccc(C(=O)NCC2(N(C)C)CCCCC2)c1 | inactive: 0.0018%
COc1ccc(Br)c(C(=O)NCC2(N3CCCCC3)CCCCC2)c1 | inactive: -0.862%
O=C(OC1CN2CCC1CC2)C(CO)(c1ccccc1)c1ccccc1 (centres undefined) | inactive: -0.405%
O=C(NCC1(N2CCCCC2)CCCCC1)c1cccc(Cl)c1 | inactive: -0.326%
COc1ccc(Cl)cc1C(=O)NCC1(N(C)C)CCCCC1 | inactive: -0.328%
COc1cccc(C(=O)NCC2(N3CCCCC3)CCCCC2)c1 | inactive: 0.288%
COc1cc(C(=O)NCC2(N(C)C)CCCCC2)c([N+](=O)[O-])cc1OC | inactive: -0.0663%
CN(C)C1(CNC(=O)c2ccc(Br)cc2)CCCCC1 | inactive: 6.07%
COc1ccc(C(=O)NCC2(N(C)C)CCCCC2)cc1 | inactive: -0.856%
O=C(NCC1(N2CCCCC2)CCCCC1)c1cccc(Br)c1 | inactive: -0.37%
Cc1cc(C(=O)NCC2(N3CCCCC3)CCCCC2)ccc1[N+](=O)[O-] | inactive: -0.193%
CCN1CCCC(OC(=O)C2(O)c3ccccc3C=Cc3ccccc32)C1 (centres undefined) | inactive: -0.863%
O=C(NCC1(N2CCCCC2)CCCCC1)c1cc(F)c(F)cc1Cl | inactive: -0.835%
C=CCN1CCN(CCOC(=O)C(O)(c2ccccc2)c2ccccc2)CC1 | inactive: -0.898%
CN(C)C1CCCC1OC(=O)C(O)(c1ccccc1)c1ccccc1 (centres undefined) | inactive: -0.788%
CN(C)c1ccc(C(=O)NCC2(N(C)C)CCCCC2)cc1 | inactive: 0.0503%
Cc1ccccc1C(=O)NCC1(N2CCCCC2)CCCCC1 | inactive: -0.0885%
Cc1ccc(C(=O)NCC2(N3CCCCC3)CCCCC2)cc1 | inactive: -1.23%
COc1cc(SC)ccc1C(=O)NCC1(N(C)C)CCCCC1 | inactive: -0.891%
CCN(CC)CC(C)C(C)OC(=O)C(O)(c1ccccc1)c1ccccc1 (centres undefined) | inactive: -0.105%
CC(C)N1C(=O)CC2(CCN(CCOC(=O)C(O)(c3ccccc3)c3ccccc3)CC2)C1=O | inactive: 0.0407%
CN1[C@@H]2CC[C@H]1CC(OC(=O)C(O)(c1ccccc1)c1ccccc1)C2 (some centres undefined) | inactive: -0.238%
O=C(NCC1(N2CCCCC2)CCCCC1)c1cc([N+](=O)[O-])ccc1Cl | inactive: -0.0324%
